Measurements published in patent US10806735B2, “Use of neutrophil elastase inhibitors in liver disease” (pH Pharma Co., Ltd., priority 2018, dated 2020).

Tested on: DIO mice
Assay: Example 2: oral glucose tolerance test (OGTT) in DIO mice
Format: in vivo
Method: Male DIO (diet-induced obesity) mice (C57BLJ6NTac DIO MPF, n=35) were purchased from Taconic Biosciences (Rensselaer, N.Y.). DIO mice were prepared by feeding male C57BL16 mice a high fat diet (HFD, D12492; Research Diets, Inc., New Brunswick, N.J.) from 6-16 weeks of age. A twelve-hour light cycle was maintained throughout study duration. Room temperature was monitored daily and maintained at 22-25° C. DIO mice were housed individually and maintained on the HFD during a 7-day facility acclimation period and throughout the study period. All mice were administered vehicle (5% DMSO/3% ethanol/92% peanut oil) once daily during the acclimation period.
Compounds were administered once daily in the morning by oral gavage for 6 weeks. Dose volume was maintained at 5 ml/kg throughout the study.
Whole blood was obtained weekly from fed animals by tail clip for measurement of non-fasted blood glucose (StatStrip; Nova Biomedical, Waltham, Mass.) on day 7, day 14, day 21 and day 35 after first dosing. Body weight was recorded prior to glucose measurement at baseline and weekly thereafter. Oral glucose tolerance tests were performed in fasted mice at baseline (day −1), day 28 and day 42 thereafter. […] At the end of the 6-hour fasting period, mice were challenged with glucose (2 g/kg, 10 ml/kg, by oral gavage). Blood samples were obtained by tail clip at 0, 20, 40, 60, 90 and 120 minutes post-glucose load for assessment of blood glucose by StatStrip. Serum insulin was measured from time 0 blood samples of OGTT using the Mouse/Rat Insulin Kit (MSD #K152BZC; Meso Scale Diagnostics, Rockville, Md.).
All data are represented as group mean±SEM. Data were analyzed using JMP (SAS software). All normalizations were calculated using terminal body weight. […] Treatment effects compared to vehicle were determined using Oneway ANOVA (*, p<0.05) followed by Dunnett's test where appropriate.

CN(CCOc1ccc(CC2SC(=O)NC2=O)cc1)c1ccccn1 (stereo not shown) [rosiglitazone, reference compound]
decrease of glucose AUC on day 42 compared to baseline (30 mg/kg/day PO, vehicle 12.6±10.3%): 44.9±3.9%
OGTT glucose AUC on day 42 (30 mg/kg/day PO, vehicle 27.8±1.2): 20.1±0.5 mg/dL/min×10^3
OGTT glucose AUC on day 28 (30 mg/kg/day PO, vehicle 27.9±1.1): 20.7±0.4 mg/dL·min×10^3
OGTT glucose AUC at baseline (day −1 before treatment, group assigned to 30 mg/kg/day): 37.6±2.6 mg/dL·min×10^3
